Literature values as cited in patent publication US11498903B2, “2-(1,1′-biphenyl)-1H-benzodimidazole derivatives and related compounds as apelin and APJ agonists for treating cardiovascular diseases” (BRISTOL-MYERS SQUIBB COMPANY, priority 2017, dated 2022).

Conditions: estimated; Japp et al. 2010; cited from earlier work

For apelin, the half-life in circulation is listed as “less than 5 minutes”.
